Measurements taken from patent US20180110824A1.

Protein sequences, listed by entry. Tags and fused reporters are not part of them.
UniProt O43193, whole entry: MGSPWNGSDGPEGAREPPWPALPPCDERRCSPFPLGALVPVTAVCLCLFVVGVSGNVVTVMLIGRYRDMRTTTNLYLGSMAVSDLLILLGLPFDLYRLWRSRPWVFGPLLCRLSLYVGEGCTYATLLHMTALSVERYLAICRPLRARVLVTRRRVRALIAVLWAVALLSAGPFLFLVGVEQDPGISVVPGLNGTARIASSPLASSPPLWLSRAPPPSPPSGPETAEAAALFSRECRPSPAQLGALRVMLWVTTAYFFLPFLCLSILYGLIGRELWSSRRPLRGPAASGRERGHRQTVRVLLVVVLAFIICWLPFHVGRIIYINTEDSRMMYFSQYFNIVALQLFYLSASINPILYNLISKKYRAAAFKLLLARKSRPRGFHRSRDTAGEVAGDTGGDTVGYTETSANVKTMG
UniProt Q92847, whole entry: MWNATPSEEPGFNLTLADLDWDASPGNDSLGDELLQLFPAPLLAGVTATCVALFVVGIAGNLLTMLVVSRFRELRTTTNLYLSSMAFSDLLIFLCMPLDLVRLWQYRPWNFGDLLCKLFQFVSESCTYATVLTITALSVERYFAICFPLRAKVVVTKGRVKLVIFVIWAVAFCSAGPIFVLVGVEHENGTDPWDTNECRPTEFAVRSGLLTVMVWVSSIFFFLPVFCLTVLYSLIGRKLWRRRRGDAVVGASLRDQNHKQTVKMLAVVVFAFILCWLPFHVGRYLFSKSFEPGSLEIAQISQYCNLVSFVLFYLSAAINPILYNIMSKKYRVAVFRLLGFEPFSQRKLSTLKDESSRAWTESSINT

Legend:
motilin receptor = motilin receptor (Homo sapiens, UniProt O43193); test: Selectivity for the ghrelin receptor versus the motilin receptor
[1] = molecular target: human growth hormone secretagogue receptor (hGHS-R1a) (Homo sapiens, UniProt Q92847); test: Competitive radioligand binding assay (ghrelin receptor), [125I]-ghrelin displacement on GHS-R/HEK 293 membranes
[2] = molecular target: human ghrelin receptor (hGHS-R1a) (Homo sapiens, UniProt Q92847); assay type: cell-based; details: Table 4; functional (agonist) activity; TFA salts unless otherwise noted
[3] = Table 3B, binding activity at the human ghrelin receptor
[4] = Table 4, TFA salts unless otherwise noted
[5] = Binding activity at the human ghrelin receptor, [125I]-ghrelin displacement
[6] = read-out: Binding Activity at the Human Ghrelin Receptor (Ki), [125I]-ghrelin displacement, GHS-R/HEK 293 membranes, class symbols

| Ki [1, 3] | Ki [1, 5] | Compound | also measured |
| --- | --- | --- | --- |
| 10 to 100 nM |  | C[C@@H]1C(=O)N[C@H](Cc2ccc(F)cc2)C(=O)NC[C@H]2C[C@H]2c2ccccc2OCCN[C@@H](C2CC2)C(=O)N1C (single isomer, unassigned) | Selectivity (motilin receptor): 450/1; Ki [1, 4]: 10 to 100 nM; EC50 [2]: 100 to 1000 nM |
| 10 to 100 nM |  | CC[C@H](C)[C@@H]1NCCOc2ccccc2CCCNC(=O)[C@H](Cc2cccc(Cl)c2)NC(=O)C2(CCNC2)NC1=O (stereo partly drawn) |  |
|  |  | CC1C(=O)NC(Cc2ccc(F)cc2)C(=O)NCCOCCOCCNC(C2CC2)C(=O)N1C (stereo not drawn) | Ki ([1]; Table 3D): 1000 to 10000 nM |
| 100 to 1000 nM |  | CC[C@H](C)[C@@H]1NCCCCC=CCCNC(=O)[C@H](Cc2cccc(Cl)c2)NC(=O)C2(CCCC2)NC1=O |  |
| 100 to 1000 nM |  | CCC(C)C1NCCOc2ccccc2/C=C/CNC(=O)C(COCc2ccccc2)NC(=O)C(C)(C)NC1=O (stereo not drawn) |  |
|  | > 10000 nM | CC(C)C[C@@H]1NCc2ccc(cc2)CCNC(=O)[C@H](Cc2ccccc2)NC(=O)C2(CCCC2)NC1=O |  |
|  |  | CCC(C)C1NCCOc2ccccc2CCCNC(=O)C(Cc2ccccc2)N2CCC(C2=O)N(C)C1=O (stereo not drawn) | Ki ([1]; Table 3E): 1000 to 10000 nM; Ki [1, 6]: 1000 to 10000 nM |
|  |  | CCC(C)[C@@H]1NCCCCCCCNC(=O)[C@@H](Cc2ccccc2)NC(=O)[C@@H](C)N(C)C1=O (stereo partly drawn) | Ki [1, 6]: > 10000 nM |
|  | 0.1 to 10 nM | CC(C)[C@@H]1NCCOc2ccccc2/C=C/CNC(=O)[C@H](Cc2ccccc2)NC(=O)[C@@H](C)N(C)C1=O |  |
|  | > 10000 nM | CCC[C@@H]1NCc2cccc(c2)CCNC(=O)[C@@H](Cc2ccccc2)NC(=O)CN(C)C1=O |  |
|  |  | CCC(C)[C@@H]1NCCOc2ccccc2/C=C/CNC(=O)[C@H](Cc2ccccc2)NC(=O)C2(CCCC2)NC1=O (stereo partly drawn) | Ki [1, 6]: 10 to 100 nM |
|  | > 1000 nM | CCC[C@H]1C(=O)N[C@H](Cc2ccccc2)C(=O)NCCCc2ccccc2OCCN[C@@H](C(C)CC)C(=O)N1C (stereo partly drawn) |  |
|  | 100 to 1000 nM | CC[C@H](C)[C@@H]1NCCOc2ccccc2CCCNC(=O)[C@@H](Cc2ccccc2)NC(=O)[C@H](C(C)C)N(C)C1=O |  |
| 10 to 100 nM |  | CC[C@H](C)[C@@H]1NCCCc2ccccc2/C=C/CNC(=O)[C@H](Cc2cccc(Cl)c2)NC(=O)C2(CCCC2)NC1=O | Ki [1, 4]: 10 to 100 nM; EC50 [2]: 1 to 100 nM |
|  | 1000 to 10000 nM | CC(C)C[C@@H]1NCCOc2cccnc2CCCNC(=O)[C@H](Cc2ccccc2)NC(=O)C2(CCCC2)NC1=O |  |
| 10 to 100 nM |  | CC[C@H](C)[C@@H]1NCCOc2ccccc2/C=C/CNC(=O)[C@H](Cc2cccc(Cl)c2)NC(=O)C2(CCOC2)NC1=O (stereo partly drawn) |  |
|  | 10 to 100 nM | CC[C@@H]1NCCOc2ccccc2/C=C/CNC(=O)[C@H](Cc2ccccc2)NC(=O)C2(CCCC2)NC1=O |  |
|  |  | CCC(C)C1NCCOc2cccnc2CCCNC(=O)C(Cc2ccccc2)NC(=O)C(C)N(C)C1=O (stereo not drawn) | Selectivity (motilin receptor): >100/1; Ki [1, 4]: 10 to 100 nM; Ki [1, 6]: 10 to 100 nM; EC50 [2]: 1 to 100 nM |

| Ki [1, 3] | Ki [1, 5] | Compound | also measured |
| --- | --- | --- | --- |
|  | 1000 to 10000 nM | O=C1CNCCOc2ccccc2CCCNC(=O)[C@H](Cc2ccccc2)NC(=O)C2(CCCC2)N1 |  |
|  | > 1000 nM | CCC(C)C1NCCOc2ccccc2CCCNC(=O)C(Cc2ccccc2)NC(=O)C(C(C)C)N(C)C1=O (stereo not drawn) |  |
| 10 to 100 nM |  | CCC(C)[C@@H]1NCCOc2ccccc2/C=C/CNC(=O)[C@H](Cc2cc(F)cc(F)c2)NC(=O)C2(CCCC2)NC1=O (stereo partly drawn) |  |
|  |  | CC(C)CC1NCCOc2ccccc2/C=C/CNC(=O)C(Cc2ccncc2)NC(=O)C2(CCCC2)NC1=O (stereo not drawn) | Ki [1, 6]: > 10000 nM |
| 10 to 100 nM | 100 to 1000 nM | CC(C)[C@@H]1NCCOc2ccccc2/C=C/CNC(=O)[C@H](Cc2ccccc2)NC(=O)C2(CCOC2)NC1=O (single isomer, unassigned) | Ki [1, 4]: 100 to 1000 nM; EC50 [2]: 1 to 100 nM |
|  | > 10000 nM | CC(C)C[C@@H]1NCCC#CCCNC(=O)[C@H](Cc2ccccc2)NC(=O)C2(CCCC2)NC1=O |  |
| 100 to 1000 nM |  | CCC(C)C1NCCOc2ccccc2/C=C/CNC(=O)C(Cc2cc(F)cc(F)c2)NC(=O)C2(CCCC2)NC1=O (stereo not drawn) |  |
| 0.1 to 10 nM |  | CCC(C)C1NCC(C)Oc2ccccc2CCCNC(=O)C(Cc2cccc(Cl)c2)NC(=O)C2(CCCC2)NC1=O (single isomer, unassigned) [399b] |  |
|  | > 10000 nM | CC(C)C[C@@H]1NCCOc2ccccc2CCCNC(=O)CNC(=O)C2(CCCC2)NC1=O |  |
| 100 to 1000 nM |  | CCC(C)C1NCCCc2ccccc2C=CCNC(=O)C(Cc2cccc(Cl)c2)NC(=O)C2(CCCC2)NC1=O (stereo not drawn) |  |
| 10 to 100 nM |  | CC[C@H](C)[C@@H]1NCCOc2ccccc2/C=C/CNC(=O)[C@H](Cc2cccc(Cl)c2)NC(=O)C2(CCCC2)NC1=O |  |
|  | > 10000 nM | CC(C)CC1NCc2cccc(c2)CCNC(=O)C(Cc2ccccc2)NC(=O)C2(CCCC2)NC1=O (stereo not drawn) |  |
|  |  | CC(C)CC1NCCOc2ccccc2/C=C/CNC(=O)C(Cc2c[nH]cn2)NC(=O)C2(CCCC2)NC1=O (stereo not drawn) | Ki ([1]; Table 3D): > 10000 nM |
|  | 100 to 1000 nM | CCC(C)[C@@H]1NCCOc2ccccc2CCCNC(=O)[C@@H](Cc2ccccc2)NC(=O)[C@H](C(C)CC)N(C)C1=O (stereo partly drawn) |  |
|  | > 10000 nM | CCC[C@@H](C(=O)N(C)CC(=O)N[C@H](Cc1ccccc1)C(N)=O)N(CCOc1ccccc1CCCN)C(C)=O | binding potency ([1]; linear (not cyclized) analogues of compounds 10 and 133): lack of binding potency |
| 10 to 100 nM |  | C[C@@H]1C(=O)N[C@H](Cc2ccc(F)cc2)C(=O)NCC2CC2c2ccccc2OCCN[C@@H](C2CC2)C(=O)N1C (stereo partly drawn) |  |
|  |  | CC(C)C[C@@H]1NCCOc2ccccc2/C=C/CNC(=O)[C@H](Cc2cccnc2)NC(=O)C2(CCCC2)NC1=O | Ki [1, 6]: > 1000 nM |

Where two headings read alike, the source gives them in different places.
